# Yeast mating assay 2: variants of the scFv Ab-91

Reference: Engelhart et al. 2022, doi:10.1038/s41597-022-01779-4. File: FLAb, binding data.

Target peptide (SARS-CoV-2 spike, HR2 region): PDVDLGDISGINAS

Ab-91 is the parent antibody, in scFv form: VL, then three GGGGS repeats, then VH. The light chain is unchanged in all variants.
VL: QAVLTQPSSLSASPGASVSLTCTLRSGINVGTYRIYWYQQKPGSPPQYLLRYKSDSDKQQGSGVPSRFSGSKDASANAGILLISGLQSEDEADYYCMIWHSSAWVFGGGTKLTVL
VH: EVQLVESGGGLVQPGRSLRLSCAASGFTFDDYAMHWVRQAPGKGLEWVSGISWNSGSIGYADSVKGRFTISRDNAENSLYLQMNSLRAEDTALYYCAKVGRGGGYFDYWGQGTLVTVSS

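In library AAYL51, one, two or three CDR residues were substituted; doubles and triples were drawn at random. AlphaSeq pools MATa yeast showing the antibodies with MATalpha yeast showing the peptide. After mating in shaken culture at 30 °C for 16 h, diploids were selected and their barcode pairs sequenced. The ratio of observed to expected reads was calibrated, replicate by replicate, on BCL2-family standards whose Kd was known from biolayer interferometry. There are three technical replicates.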

Positions count from residue 1 of the parent VH; Y32I puts I in place of Y.
Every variant below is changed at Y32 of the VH (sequential numbering).
Values are apparent Kd, the geometric mean of the replicates that gave a signal; lower means stronger binding.
Where no diploid with the target was found in any replicate, the entry reads "nd": below detection, most likely a poor binder, though not proof of it.

- Y32I: 37 µM (2 of 3 replicates)
- D30F/D31N/Y32E: 200 µM (2 of 3 replicates)
- Y32G/I51S/R101H: 58 µM (2 of 3 replicates)
- Y32E/F106G/Y108M: 100 µM (1 of 3 replicates)
- Y32V/Y60G/G104K: nd (0 of 3 replicates)
- Y32A/I51L/V64L: 170 µM (3 of 3 replicates)
- Y32T/V64E/R101Y: nd (0 of 3 replicates)
- Y32H/G59N/V99Q: 200 µM (2 of 3 replicates)
- Y32S/S52L/A61V: 43 µM (3 of 3 replicates)
- Y32W/S57T/Y105T: nd (0 of 3 replicates)
- F27W/Y32A/R101S: nd (0 of 3 replicates)
- Y32T/V64M/D107N: nd (0 of 3 replicates)
- Y32E/K65A/V99E: 980 µM (1 of 3 replicates)
- D30M/Y32A/N54S: 19 µM (3 of 3 replicates)
- Y32F/S55G: nd (0 of 3 replicates)
- D30F/Y32P/G104D: nd (0 of 3 replicates)
- F27D/Y32H/G50L: 14 µM (1 of 3 replicates)
- Y32R/S63C/V99D: nd (0 of 3 replicates)
- D31I/Y32A/G100N: nd (0 of 3 replicates)
- Y32R/S63H/G103A: 360 µM (3 of 3 replicates)
- Y32G/S55R/G100M: 430 µM (1 of 3 replicates)
- D30S/Y32P/N54I: nd (0 of 3 replicates)
- Y32S/I51T/F106K: 130 µM (1 of 3 replicates)
- Y32D/K65Y: nd (0 of 3 replicates)
- G26Y/Y32R: 150 µM (2 of 3 replicates)
- G26L/Y32K/G100N: 48 µM (1 of 3 replicates)
- Y32A/S52G/G103E: nd (0 of 3 replicates)
- Y32P/S52N/N54F: 5.5 µM (1 of 3 replicates)
- Y32D/R101S/Y108I: 33 µM (3 of 3 replicates)
- Y32W/D62I: nd (0 of 3 replicates)
- G26W/Y32E/Y105S: nd (0 of 3 replicates)
- Y32I/I51S/I58Y: nd (0 of 3 replicates)
- T28F/Y32M/A61N: 2.8 µM (3 of 3 replicates)
- Y32F/G59Q/S63Y: 210 µM (1 of 3 replicates)
- T28W/Y32E: 100 µM (1 of 3 replicates)
- Y32K/S52F/G56V: 1.2 µM (1 of 3 replicates)

3 of these entries, quoted again:

{"changes": "Y32F/G59Q/S63Y", "Kd": "210 µM", "seen in": "1/3"}
{"changes": "Y32I/I51S/I58Y", "Kd": "nd", "seen in": "0/3"}
{"changes": "Y32P/S52N/N54F", "Kd": "5.5 µM", "seen in": "1/3"}

Background: pairings of library AAYL51 with three empty control strains gave a value in 21% of cases (median 34 µM, 5th percentile 1.8 µM). Values in that range, when seen in few replicates, are hard to tell from nonspecific mating.